Like-named read-outs stand apart in the source and are kept apart here.
Key:
PARP12 = biological target: T1, PARP12 (Homo sapiens, UniProt Q9H0J9); assay type: biochemical; conditions: proximity-enhanced assay
T1 construct: dockerin domain of Hungateiclostridium thermocellum Cel48s (C); made in house; host or cells: Escherichia coli
T1 sequence (Q9H0J9 1-701): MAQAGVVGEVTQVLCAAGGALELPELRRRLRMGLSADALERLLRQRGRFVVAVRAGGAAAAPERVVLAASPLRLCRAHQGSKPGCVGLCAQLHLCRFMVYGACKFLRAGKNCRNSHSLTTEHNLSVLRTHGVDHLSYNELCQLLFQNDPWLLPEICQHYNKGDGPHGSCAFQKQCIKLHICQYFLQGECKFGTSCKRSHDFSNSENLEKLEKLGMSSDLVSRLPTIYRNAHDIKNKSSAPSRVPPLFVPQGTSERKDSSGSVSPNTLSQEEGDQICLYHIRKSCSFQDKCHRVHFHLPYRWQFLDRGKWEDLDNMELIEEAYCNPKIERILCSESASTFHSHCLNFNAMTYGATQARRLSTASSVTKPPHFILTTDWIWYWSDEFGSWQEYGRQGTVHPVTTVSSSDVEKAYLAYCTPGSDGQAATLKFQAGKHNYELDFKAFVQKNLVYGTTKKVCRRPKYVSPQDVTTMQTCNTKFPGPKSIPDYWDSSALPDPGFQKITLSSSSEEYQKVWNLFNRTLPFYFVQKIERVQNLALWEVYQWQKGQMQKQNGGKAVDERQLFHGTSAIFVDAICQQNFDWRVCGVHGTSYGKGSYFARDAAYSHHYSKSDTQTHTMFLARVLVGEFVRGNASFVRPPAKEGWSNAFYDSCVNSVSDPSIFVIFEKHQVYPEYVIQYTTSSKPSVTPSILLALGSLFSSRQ
Experimental: (§1) We therefore had to improve the assay method and developed a homogeneous proximity enhanced assay for mono-ARTs.[47]
(§2) The proteins used in Tables 1–3 were produced as described earlier. Dockerin constructs to allow enhanced activity assays for mono-ARTs (Table 4) were produced in Escherichia coli with an N-terminal maltose binding protein (MBP) and a C-terminal dockerin domain from Hungateiclostridium thermocellum Cel48s as described recently.[47]
(§3) Inhibition experiments were performed using a homogenous assay measuring NAD+ consumption.[80]−[82] Reactions were carried out in quadruplicate, and IC50 curves were fitted using sigmoidal dose response curve (four variables) in GraphPad Prism version 8.02. […] Assay conditions for PARP2, TNKS2, PARP10, and PARP15 (Tables 1–3) were recently reported.[44] The conditions for the proximity-enhanced mono-ART assays (Table 4) were also reported recently.[47] PARP6 (400 nM) inhibition was measured using the standard buffer (50 mM sodium phosphate pH 7.0) for the enhanced activity assay using 500 nM NAD^+ and 18 h incubation in r.t..

Amino acid sequences for entries named in this document (tags omitted). A change or cut given only in a name is not applied to a line headed by its entry.
UniProt Q7Z3E1: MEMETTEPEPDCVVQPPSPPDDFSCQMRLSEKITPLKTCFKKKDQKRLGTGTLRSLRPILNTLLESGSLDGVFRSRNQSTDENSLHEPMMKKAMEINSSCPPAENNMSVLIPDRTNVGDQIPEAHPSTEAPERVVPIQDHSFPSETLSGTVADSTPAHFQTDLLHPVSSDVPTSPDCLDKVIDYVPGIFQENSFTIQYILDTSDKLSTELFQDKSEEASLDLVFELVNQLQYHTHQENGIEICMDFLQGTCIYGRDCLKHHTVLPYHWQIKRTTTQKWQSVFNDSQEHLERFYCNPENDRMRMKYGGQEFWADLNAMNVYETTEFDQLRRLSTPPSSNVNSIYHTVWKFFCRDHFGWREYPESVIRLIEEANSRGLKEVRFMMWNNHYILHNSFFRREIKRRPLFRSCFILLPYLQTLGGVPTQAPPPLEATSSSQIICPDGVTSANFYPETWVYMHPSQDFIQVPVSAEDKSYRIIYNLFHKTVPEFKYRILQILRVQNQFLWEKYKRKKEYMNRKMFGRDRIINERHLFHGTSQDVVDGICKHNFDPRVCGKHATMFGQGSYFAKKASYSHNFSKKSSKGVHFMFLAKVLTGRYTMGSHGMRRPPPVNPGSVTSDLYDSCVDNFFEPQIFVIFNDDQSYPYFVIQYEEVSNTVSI
UniProt Q460N5, whole entry: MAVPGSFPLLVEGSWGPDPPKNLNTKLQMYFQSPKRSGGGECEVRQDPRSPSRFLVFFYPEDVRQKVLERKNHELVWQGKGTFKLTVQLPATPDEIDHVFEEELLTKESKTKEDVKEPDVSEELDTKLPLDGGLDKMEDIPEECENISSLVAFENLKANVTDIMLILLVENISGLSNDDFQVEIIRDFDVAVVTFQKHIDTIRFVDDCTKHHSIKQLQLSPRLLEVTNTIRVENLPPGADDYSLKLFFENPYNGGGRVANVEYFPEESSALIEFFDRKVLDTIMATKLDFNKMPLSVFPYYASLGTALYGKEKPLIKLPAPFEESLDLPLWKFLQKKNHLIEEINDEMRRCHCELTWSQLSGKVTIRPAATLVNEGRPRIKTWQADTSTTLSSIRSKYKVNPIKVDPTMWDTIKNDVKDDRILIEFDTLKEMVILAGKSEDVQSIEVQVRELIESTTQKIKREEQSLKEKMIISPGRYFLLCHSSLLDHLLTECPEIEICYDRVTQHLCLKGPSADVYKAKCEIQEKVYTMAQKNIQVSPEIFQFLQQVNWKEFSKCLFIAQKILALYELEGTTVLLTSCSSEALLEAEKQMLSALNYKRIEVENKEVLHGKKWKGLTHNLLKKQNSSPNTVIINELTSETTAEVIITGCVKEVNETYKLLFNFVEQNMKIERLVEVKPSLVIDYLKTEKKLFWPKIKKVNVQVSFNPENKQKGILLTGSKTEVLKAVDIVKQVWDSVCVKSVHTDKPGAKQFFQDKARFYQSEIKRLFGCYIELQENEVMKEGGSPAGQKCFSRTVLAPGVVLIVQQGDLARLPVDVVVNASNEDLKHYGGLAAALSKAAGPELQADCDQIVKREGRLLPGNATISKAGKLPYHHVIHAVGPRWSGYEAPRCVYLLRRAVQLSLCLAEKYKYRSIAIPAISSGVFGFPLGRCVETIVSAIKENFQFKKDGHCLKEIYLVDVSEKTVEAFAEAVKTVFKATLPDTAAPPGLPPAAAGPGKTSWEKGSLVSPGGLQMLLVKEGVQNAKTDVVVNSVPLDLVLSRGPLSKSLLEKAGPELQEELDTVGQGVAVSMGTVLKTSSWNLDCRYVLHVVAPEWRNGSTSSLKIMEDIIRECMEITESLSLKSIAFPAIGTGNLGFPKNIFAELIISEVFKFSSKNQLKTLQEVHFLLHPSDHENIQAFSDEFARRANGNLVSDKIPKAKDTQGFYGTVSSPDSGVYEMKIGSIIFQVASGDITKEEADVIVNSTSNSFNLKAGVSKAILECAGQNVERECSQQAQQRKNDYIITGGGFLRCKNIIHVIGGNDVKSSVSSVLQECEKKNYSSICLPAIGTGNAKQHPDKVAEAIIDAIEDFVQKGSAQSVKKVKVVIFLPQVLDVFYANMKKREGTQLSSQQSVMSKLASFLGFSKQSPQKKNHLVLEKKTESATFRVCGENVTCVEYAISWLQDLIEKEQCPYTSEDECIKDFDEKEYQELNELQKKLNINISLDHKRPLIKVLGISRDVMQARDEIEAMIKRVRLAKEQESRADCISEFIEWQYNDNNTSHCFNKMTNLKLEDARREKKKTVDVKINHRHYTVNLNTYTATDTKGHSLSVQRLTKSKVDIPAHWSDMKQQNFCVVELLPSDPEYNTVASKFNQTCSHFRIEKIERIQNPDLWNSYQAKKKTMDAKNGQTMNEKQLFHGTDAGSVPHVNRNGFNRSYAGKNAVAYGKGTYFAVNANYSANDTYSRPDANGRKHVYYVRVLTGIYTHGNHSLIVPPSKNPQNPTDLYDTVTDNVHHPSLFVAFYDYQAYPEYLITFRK
UniProt Q9Y6F1: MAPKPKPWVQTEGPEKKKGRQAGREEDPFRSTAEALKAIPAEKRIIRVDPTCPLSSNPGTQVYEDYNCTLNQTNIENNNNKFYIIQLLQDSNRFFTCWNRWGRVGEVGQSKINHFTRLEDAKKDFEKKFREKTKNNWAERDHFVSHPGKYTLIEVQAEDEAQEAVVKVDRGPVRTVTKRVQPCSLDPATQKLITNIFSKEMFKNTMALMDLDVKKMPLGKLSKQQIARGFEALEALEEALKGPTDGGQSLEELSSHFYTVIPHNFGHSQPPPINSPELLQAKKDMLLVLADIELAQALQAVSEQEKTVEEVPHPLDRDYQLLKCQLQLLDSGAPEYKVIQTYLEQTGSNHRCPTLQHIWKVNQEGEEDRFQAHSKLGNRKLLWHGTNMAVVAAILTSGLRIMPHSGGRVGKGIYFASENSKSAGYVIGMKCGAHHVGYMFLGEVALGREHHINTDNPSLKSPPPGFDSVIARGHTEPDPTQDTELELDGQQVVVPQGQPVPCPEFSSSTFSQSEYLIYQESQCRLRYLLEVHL
UniProt P09874, whole entry: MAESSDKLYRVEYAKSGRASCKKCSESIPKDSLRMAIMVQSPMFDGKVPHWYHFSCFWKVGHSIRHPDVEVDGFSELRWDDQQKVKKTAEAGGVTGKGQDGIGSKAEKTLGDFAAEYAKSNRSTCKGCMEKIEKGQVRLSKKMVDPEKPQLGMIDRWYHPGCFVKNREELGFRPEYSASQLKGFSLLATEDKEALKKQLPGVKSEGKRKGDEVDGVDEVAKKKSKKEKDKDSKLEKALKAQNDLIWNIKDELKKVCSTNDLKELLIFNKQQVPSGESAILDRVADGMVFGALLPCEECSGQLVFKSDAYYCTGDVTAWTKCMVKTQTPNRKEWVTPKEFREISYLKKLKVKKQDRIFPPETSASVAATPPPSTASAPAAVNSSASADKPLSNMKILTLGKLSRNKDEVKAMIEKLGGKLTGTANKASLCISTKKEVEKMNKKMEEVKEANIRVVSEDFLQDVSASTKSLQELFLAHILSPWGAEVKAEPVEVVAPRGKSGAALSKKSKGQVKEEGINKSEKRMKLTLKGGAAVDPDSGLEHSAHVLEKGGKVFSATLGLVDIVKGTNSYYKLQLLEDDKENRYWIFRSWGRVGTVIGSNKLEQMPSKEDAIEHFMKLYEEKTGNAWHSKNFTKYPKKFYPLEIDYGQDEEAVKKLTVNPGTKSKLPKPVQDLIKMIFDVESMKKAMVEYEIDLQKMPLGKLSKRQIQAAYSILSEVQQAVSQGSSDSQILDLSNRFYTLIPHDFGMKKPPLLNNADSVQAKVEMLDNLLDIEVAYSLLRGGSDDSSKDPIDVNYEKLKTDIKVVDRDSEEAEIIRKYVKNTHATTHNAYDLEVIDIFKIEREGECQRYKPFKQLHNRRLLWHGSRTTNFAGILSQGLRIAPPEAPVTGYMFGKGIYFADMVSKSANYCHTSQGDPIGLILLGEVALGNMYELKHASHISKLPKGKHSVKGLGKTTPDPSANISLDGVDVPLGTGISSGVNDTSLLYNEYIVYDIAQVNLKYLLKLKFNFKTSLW
UniProt Q9UKK3: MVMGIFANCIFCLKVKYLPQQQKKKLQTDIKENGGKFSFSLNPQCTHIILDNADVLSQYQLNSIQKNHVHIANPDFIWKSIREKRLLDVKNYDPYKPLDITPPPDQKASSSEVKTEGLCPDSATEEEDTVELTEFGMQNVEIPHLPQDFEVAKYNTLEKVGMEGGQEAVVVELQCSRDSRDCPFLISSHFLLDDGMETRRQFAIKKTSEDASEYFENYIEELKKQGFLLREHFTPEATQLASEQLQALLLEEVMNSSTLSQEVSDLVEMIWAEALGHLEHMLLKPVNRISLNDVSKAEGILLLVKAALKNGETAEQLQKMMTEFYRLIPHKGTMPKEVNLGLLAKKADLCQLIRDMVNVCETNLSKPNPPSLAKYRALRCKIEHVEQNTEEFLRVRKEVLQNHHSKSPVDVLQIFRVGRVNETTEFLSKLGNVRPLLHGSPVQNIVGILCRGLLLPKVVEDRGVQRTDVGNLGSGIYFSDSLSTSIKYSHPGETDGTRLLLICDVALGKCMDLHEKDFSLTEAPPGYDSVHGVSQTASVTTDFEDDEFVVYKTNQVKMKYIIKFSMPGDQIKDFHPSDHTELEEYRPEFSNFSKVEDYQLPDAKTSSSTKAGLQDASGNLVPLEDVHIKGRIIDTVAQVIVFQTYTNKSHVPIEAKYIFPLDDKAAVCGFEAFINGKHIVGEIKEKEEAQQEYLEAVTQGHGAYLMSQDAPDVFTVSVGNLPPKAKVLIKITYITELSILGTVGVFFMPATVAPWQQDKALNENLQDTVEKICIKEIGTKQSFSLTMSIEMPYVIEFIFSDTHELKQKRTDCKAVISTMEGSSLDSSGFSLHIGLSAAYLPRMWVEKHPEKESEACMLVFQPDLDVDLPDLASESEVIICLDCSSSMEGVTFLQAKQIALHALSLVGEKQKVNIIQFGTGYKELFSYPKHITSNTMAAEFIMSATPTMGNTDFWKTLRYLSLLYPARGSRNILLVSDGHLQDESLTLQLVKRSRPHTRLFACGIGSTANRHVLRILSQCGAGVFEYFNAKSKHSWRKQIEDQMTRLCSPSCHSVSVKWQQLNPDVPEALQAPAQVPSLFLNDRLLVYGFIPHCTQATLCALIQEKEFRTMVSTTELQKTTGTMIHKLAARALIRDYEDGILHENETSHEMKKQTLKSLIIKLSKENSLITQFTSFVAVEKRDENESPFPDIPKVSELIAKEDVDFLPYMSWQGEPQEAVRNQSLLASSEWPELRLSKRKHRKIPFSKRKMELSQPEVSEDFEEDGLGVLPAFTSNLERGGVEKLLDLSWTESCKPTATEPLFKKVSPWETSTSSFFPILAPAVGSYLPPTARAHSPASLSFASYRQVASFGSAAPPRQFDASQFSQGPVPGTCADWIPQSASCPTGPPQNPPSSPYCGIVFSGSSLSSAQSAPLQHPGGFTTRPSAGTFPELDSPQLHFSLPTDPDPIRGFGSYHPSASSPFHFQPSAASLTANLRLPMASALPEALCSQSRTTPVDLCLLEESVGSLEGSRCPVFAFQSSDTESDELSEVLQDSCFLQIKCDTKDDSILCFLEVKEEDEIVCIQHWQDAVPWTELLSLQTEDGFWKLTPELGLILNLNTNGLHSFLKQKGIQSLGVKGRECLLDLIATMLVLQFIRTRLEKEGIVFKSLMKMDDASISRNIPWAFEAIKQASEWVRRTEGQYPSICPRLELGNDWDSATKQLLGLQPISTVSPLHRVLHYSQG
UniProt Q9UGN5: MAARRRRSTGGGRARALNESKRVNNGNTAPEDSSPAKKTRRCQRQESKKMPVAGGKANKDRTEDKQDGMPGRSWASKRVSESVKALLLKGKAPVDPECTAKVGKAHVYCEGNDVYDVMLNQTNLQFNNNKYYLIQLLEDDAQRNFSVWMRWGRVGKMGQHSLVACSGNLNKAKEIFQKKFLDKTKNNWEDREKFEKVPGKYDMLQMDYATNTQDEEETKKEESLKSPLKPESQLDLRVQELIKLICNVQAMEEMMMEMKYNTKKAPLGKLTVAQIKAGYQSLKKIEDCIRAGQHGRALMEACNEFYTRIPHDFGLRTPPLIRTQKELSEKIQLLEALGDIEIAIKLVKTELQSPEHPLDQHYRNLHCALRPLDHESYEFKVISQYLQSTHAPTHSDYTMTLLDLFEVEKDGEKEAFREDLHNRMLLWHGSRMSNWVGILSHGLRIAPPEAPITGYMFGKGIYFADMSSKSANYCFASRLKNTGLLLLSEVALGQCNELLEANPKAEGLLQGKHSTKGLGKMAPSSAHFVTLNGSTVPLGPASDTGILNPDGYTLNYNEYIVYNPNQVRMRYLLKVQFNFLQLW

PARP10 = biological target: T2, PARP10 (Homo sapiens, UniProt Q53GL7); test: biochemical; assay type: biochemical; design: made in house; conditions: standard assay (Tables 1-3)
T2 sequence (Q53GL7 1-1025): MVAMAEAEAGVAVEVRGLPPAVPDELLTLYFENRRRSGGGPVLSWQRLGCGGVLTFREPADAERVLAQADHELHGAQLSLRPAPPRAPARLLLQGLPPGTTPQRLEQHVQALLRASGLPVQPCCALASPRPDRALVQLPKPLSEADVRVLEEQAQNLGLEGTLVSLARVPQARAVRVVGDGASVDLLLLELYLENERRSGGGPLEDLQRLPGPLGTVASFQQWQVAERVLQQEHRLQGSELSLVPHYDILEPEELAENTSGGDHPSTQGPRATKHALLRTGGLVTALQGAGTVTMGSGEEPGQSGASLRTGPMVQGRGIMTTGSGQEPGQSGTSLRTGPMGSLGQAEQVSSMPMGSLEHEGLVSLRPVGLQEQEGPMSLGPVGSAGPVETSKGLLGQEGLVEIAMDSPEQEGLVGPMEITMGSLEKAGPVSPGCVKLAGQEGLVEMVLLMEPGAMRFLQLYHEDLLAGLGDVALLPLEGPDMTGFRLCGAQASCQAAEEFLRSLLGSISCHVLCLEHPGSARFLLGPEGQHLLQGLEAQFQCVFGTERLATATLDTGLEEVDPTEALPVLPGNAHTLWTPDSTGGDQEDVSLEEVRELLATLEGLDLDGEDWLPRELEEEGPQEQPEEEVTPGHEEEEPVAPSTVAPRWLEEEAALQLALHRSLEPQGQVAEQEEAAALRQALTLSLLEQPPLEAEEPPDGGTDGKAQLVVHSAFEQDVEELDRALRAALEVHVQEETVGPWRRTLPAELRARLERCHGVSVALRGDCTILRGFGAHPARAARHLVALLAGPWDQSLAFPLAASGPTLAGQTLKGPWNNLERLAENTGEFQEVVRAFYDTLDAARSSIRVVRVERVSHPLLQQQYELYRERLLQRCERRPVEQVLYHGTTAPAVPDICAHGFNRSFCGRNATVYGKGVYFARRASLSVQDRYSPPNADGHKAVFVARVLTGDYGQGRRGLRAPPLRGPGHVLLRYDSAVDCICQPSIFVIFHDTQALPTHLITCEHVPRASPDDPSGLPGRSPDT

PARP11 = PARP11 (Homo sapiens, UniProt Q9NR21); conditions: proximity-enhanced assay
Experimental: as §1, §2, §3

PARP7 = PARP7 (Homo sapiens, UniProt Q7Z3E1); conditions: proximity-enhanced assay
Experimental: as §1, §2, §3

PARP14 [1] = biological target: PARP14 (Homo sapiens, UniProt Q460N5); conditions: proximity-enhanced assay
Experimental: as §1, §2, §3

PARP15 [2] = biological target: T3, PARP15 (Homo sapiens, UniProt Q460N3); conditions: proximity-enhanced assay
T3 sequence (Q460N3 1-678): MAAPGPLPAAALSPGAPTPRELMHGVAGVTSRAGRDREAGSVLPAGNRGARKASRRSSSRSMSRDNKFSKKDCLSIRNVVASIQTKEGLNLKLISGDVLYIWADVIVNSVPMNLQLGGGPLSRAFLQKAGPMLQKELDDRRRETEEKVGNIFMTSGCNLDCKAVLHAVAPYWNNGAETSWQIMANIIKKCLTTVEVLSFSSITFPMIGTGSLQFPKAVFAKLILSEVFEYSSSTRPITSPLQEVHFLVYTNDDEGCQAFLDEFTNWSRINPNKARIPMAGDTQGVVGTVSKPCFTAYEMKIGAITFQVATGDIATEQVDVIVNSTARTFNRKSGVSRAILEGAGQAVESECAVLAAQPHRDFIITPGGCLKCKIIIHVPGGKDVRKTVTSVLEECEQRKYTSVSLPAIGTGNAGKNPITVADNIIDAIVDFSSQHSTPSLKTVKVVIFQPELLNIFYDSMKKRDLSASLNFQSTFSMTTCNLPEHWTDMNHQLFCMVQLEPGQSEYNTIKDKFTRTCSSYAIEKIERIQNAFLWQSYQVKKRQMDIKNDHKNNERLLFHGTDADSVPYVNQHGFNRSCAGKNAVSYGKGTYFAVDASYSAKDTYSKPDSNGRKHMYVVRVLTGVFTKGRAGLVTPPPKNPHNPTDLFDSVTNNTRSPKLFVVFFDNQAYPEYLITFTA
Experimental: as §1, §2, §3

PARP15 [3] = biological target: T3, PARP15; test: biochemical; assay type: biochemical; design: made in house; conditions: standard assay (Tables 1-3)
PARP3 = PARP3 (Homo sapiens, UniProt Q9Y6F1); conditions: read-out: PARP3 IC50
Experimental: as §3

PARP1 = PARP1 (Homo sapiens, UniProt P09874); conditions: read-out: PARP1 IC50
Experimental: as §3

PARP4 = PARP4 (Homo sapiens, UniProt Q9UKK3); conditions: read-out: PARP4 IC50
Experimental: as §3

PARP2 = biological target: T4, PARP2 (Homo sapiens, UniProt Q9UGN5); assay type: biochemical; conditions: > = less than 50% inhibition at highest concentration; ≫ = no inhibition
T4 construct: made in house

TNKS2 = biological target: T5, TNKS2 (Homo sapiens, UniProt Q9H2K2); conditions: read-out: TNKS2 IC50; > = less than 50% inhibition at highest concentration
T5 sequence (Q9H2K2 1-1166): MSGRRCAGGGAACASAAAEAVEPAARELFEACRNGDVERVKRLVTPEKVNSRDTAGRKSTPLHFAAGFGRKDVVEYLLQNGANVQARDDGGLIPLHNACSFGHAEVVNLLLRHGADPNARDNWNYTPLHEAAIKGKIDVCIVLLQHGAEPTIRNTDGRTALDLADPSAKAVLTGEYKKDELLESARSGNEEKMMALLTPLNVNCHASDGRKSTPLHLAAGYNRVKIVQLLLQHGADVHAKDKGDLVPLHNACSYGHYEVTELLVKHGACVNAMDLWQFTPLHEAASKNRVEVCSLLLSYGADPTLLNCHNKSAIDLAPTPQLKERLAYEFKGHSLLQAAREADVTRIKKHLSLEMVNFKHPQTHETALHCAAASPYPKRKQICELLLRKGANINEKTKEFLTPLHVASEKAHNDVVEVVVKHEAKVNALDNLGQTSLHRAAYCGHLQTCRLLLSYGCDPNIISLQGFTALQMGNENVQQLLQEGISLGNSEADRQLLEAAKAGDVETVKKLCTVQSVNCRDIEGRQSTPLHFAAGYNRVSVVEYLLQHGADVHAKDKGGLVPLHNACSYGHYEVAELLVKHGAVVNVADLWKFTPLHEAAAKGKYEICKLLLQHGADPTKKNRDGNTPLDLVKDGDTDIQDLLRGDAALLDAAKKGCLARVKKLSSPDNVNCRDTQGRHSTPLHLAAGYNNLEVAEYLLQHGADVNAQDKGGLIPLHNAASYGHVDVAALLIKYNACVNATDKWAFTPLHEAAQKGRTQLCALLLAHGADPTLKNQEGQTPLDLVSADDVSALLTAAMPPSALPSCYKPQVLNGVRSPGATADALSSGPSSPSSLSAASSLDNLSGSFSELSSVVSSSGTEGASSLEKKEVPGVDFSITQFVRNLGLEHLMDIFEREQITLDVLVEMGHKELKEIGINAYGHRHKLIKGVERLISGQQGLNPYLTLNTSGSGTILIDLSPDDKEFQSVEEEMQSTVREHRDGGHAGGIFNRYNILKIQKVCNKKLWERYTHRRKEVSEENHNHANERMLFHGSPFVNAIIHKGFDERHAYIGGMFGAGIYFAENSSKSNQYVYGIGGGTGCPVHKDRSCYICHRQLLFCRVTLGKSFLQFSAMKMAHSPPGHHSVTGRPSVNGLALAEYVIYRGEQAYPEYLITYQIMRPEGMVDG
Experimental: as §2, §3

PARP14 [4] = conditions: read-out: PARP14 IC50; Figure 1 ref 39; cited from earlier work

COc1ccc(OC)c2c1sc1nnc(N)n12 [Compound 27, 5,8-Dimethoxy[1,2,4]triazolo[3,4-b][1,3]benzothiazol-3-amine]
IC50 (PARP12): 0.16 µM
PARP12 pIC50 ± SEM (PARP12; n = 3): 6.80 ± 0.002
PARP10 pIC50 ± SEM (PARP10): 6.93 ± 0.06
IC50 (PARP10; * value limited by the protein concentration used, > less than 50% inhibition, ≫ no inhibition at the concentration, read-out: PARP10 IC50): 0.12 µM
PARP11 pIC50 ± SEM (PARP11; n = 3): 6.61 ± 0.07
IC50 (PARP11; read-out: PARP11 IC50): 0.24 µM
PARP7 pIC50 ± SEM (PARP7; n = 3): 7.08 ± 0.06
IC50 (PARP7; read-out: PARP7 IC50): 0.083 µM
PARP14 pIC50 ± SEM (PARP14 [1]; n = 3): 6.52 ± 0.03
IC50 (PARP14 [1]; read-out: PARP14 IC50): 0.3 µM
PARP15 pIC50 ± SEM (PARP15 [2]; n = 3): 7.25 ± 0.01
IC50 (PARP15 [2]; read-out: PARP15 IC50): 0.056 µM
PARP15 pIC50 ± SEM (PARP15 [3]): 6.91 ± 0.03
IC50 (PARP15 [3]; * value limited by the protein concentration used, > less than 50% inhibition, ≫ no inhibition at the concentration, read-out: PARP15 IC50): 0.12 µM
IC50 (PARP3): 50 µM
IC50 (PARP1): 15 µM
IC50 (PARP4): 11 µM

COc1ccc(OC)c2c1sc1nnc(NC(=O)c3ccc(Cl)cc3)n12 [Compound 29]
IC50 (PARP2): 44 µM
IC50 (TNKS2): 20 µM

O=c1[nH]c(CS[C@H]2CC[C@H](O)CC2)nc2cc(OCC3CC3)cc(F)c12 [RBN-012759]
IC50 (PARP14 [4]): 0.003 µM

From PMC9884089 (Journal of Medicinal Chemistry, 2023)
